The list shows a part of the results, in another mix than the full data. The source made the active and inactive calls. Rule as the data show it: active = activation above about 27%; inactive = the rest.
The compounds below were run against Neuropeptide Y receptor type 2 (Homo sapiens) (UniProt P49146) (assay: NPY-Y2 potentiators or agonists, primary screen, cell-based (AID 1359;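 also: cells stimulated with NPY near EC25 plus isoproterenol at EC100; 0% = vehicle plus submaximal agonist and 100% = vehicle plus saturating agonist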)). Conditions: cells expressing NPY-Y2, potentiator/agonist read-out; at 3.6 µM; hits give high values.

By UniProt entry, the sequences of proteins in these tests, tags left out.
UniProt P49146, whole entry: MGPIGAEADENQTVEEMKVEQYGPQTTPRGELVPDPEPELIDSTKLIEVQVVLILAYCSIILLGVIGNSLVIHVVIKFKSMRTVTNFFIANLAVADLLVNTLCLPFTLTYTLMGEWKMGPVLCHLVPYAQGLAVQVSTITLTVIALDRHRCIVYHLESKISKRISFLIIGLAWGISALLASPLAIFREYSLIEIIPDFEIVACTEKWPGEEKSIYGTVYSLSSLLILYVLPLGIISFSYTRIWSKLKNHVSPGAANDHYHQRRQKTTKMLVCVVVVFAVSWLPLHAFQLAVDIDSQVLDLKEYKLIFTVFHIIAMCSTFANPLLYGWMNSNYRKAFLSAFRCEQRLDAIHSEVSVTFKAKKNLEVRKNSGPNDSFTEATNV

Row | Compound | activation
1 | Cc1ccc(OCC(C)C)c(CN(CCCl)CCCl)c1 | inactive: -15.4%
2 | CCOc1ccc(C)cc1CN(CCCl)CCCl | inactive: -11.7%
3 | COc1ccc(NC2CCN(CCc3ccccc3)CC2)c(OC)c1 | inactive: 1.94%
4 | O=C(NCC1(N2CCOCC2)CCCCC1)c1cc2ccccc2o1 | inactive: 4.61%
5 | CCOC(=O)N1CCC(Nc2ccc(OC)cc2)CC1 | inactive: 8.9%
6 | N#CC1(Nc2ccccc2)CCN(Cc2ccccc2)CC1 | inactive: -7.35%
7 | O=C(OC1CN2CCC1CC2)C1c2ccccc2Oc2ccccc21 (centres undefined) | inactive: -28.9%
8 | COc1ccc(C(=O)NCC2(N3CCCCC3)CCCCC2)c(OC)c1OC | active: 50.9%
9 | CN1CCC(Nc2cccc(F)c2)CC1 | inactive: -3.17%
10 | COc1ccc(CN(CCCl)CCCl)cc1Cl | inactive: -16.3%
11 | CN(C)c1cccc(C(=O)NCC2(N3CCCCC3)CCCCC2)c1 | inactive: 9.16%
12 | CC(C)c1ccc(NC2CCN(C(=O)OC(C)(C)C)CC2)cc1 | inactive: 0.65%
13 | COc1ccc(NC2CCN(C(=O)OC(C)(C)C)CC2)cc1 | inactive: -2.65%
14 | CN1CCN(CCOC(=O)C(O)(c2ccccc2)c2ccccc2)CC1 | inactive: 10.2%
15 | O=C(NCC1(N2CCOCC2)CCCCC1)c1cc(=O)[nH]c2ccccc12 | inactive: -16.3%
16 | O=C(NCC1(N2CCCCC2)CCCCC1)c1cccc([N+](=O)[O-])c1 | inactive: -6.1%
17 | N#CC1(Nc2ccccc2)CCN(CCc2ccccc2)CC1 | inactive: 0.2%
18 | c1ccc(CN2CCC(Nc3ccccc3)CC2)cc1 | inactive: 7.78%
19 | N#Cc1ccc(C(=O)NCC2(N3CCCCC3)CCCCC2)cc1 | inactive: -12.8%
20 | N/C(=N\O)c1c(N)no[n+]1[O-] | inactive: -8.16%
21 | O=C(OC1CN2CCC1CC2)C1c2ccccc2C=Cc2ccccc21 (centres undefined) | inactive: 3.84%
22 | COc1ccc(C(=O)NCC2(N3CCOCC3)CCCCC2)cc1OC | inactive: -14%
23 | CCC(CO)(C(=O)OC1CN2CCC1CC2)c1ccccc1 (centres undefined) | inactive: 15.1%
24 | COc1cc(OC)cc(C(=O)NCC2(N3CCOCC3)CCCCC2)c1 | inactive: -3.4%
25 | CCCOc1ccc(C)cc1CN(CCCl)CCCl | inactive: -2.69%
26 | CCOc1ncccc1C(=O)NCC1(N2CCOCC2)CCCCC1 | inactive: -7.41%
27 | CC(C)(C)OC(=O)N1CCC(Nc2ccccc2)CC1 | inactive: 6.19%
28 | CCN1CCC(Nc2cccc(F)c2)CC1 | inactive: -16.1%
29 | CN(C)c1ccc(C(=O)NCC2(N3CCCCC3)CCCCC2)cc1 | inactive: -10.1%

Reference: PubChem BioAssay AID1359 (The Scripps Research Institute Molecular Screening Center, 2008)
